Experimental findings from ChEMBL document CHEMBL4368915, “Synthesis and Biological Investigation of Phenothiazine-Based Benzhydroxamic Acids as Selective Histone Deacetylase 6 Inhibitors” (J Med Chem, 2019) are described below.

Molecules are shown by their SMILES.

What is called IC50 is the concentration at which inhibition is half-maximal.

The test concerns the target T1, Protein deacetylase HDAC6 (Homo sapiens, UniProt Q9UBN7).
T1 sequence (Q9UBN7 whole entry): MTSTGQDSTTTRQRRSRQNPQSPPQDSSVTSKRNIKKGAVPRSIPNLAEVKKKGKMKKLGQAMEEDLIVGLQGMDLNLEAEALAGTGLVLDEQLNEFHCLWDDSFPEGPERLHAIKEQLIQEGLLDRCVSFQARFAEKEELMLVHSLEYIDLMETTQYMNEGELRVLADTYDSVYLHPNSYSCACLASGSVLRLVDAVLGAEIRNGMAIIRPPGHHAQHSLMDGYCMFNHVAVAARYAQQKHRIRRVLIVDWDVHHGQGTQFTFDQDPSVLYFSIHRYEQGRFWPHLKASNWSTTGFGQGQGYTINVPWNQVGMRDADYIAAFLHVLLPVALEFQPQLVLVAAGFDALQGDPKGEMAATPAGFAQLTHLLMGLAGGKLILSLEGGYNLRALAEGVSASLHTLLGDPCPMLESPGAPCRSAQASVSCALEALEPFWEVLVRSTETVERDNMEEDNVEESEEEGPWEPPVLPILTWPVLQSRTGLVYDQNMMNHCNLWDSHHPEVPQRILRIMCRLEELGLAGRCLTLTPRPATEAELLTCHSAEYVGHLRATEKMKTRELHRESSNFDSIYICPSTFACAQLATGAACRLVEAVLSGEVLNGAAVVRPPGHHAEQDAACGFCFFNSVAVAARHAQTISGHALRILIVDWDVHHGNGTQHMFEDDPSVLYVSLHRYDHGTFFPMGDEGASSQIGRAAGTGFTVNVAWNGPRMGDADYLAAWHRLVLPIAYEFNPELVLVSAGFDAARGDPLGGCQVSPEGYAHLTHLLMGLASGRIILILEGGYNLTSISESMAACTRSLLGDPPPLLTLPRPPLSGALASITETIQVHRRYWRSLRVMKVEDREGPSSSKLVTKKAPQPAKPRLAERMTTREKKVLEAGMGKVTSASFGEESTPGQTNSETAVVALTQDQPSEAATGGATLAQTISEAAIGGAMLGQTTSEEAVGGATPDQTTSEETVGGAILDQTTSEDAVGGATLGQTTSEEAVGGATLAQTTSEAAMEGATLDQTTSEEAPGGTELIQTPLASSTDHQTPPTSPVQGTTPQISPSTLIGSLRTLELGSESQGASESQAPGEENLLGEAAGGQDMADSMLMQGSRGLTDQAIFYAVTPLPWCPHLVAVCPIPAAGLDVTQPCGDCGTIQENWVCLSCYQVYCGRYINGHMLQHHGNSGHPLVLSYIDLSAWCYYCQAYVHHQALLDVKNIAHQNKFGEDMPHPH

Consider `O=C(NO)c1ccc(CN2c3ccccc3S(=O)(=O)c3ccccc32)cc1`, for which half-maximal inhibition (IC50) required 13 nM.
